The values below come from patent US8586613B2, “Pyridinium and quinolinium derivatives” (Universidad de Granada, priority 2004, dated 2013).

By UniProt entry, the sequences of proteins in these tests, tags left out.
UniProt P35790, whole entry: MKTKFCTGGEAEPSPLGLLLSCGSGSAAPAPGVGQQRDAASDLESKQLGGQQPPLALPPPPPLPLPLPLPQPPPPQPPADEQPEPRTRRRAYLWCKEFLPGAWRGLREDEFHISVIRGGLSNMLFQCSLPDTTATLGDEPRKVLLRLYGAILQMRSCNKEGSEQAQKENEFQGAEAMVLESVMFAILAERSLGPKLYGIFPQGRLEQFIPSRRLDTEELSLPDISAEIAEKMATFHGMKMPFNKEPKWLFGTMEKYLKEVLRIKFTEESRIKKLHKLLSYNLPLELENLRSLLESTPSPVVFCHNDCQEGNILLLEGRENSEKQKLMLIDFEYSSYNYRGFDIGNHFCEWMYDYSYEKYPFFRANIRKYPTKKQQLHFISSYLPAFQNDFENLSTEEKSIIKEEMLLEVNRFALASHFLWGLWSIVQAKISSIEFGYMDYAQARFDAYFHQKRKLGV

The target in one assay is T1, Human ChoK (Homo sapiens, UniProt P35790).
T1 construct: made in house; host or cells: E. coli
Put plainly: Ex vivo assay of the activity of human ChoK (recombinant choline kinase expressed in E. coli). It is filed as biochemical. Conditions: 37° C., 30 minutes. How it is done: Recombinant choline kinase expressed in E. coli in the buffer assay (100 mM Tris-HCl pH 8.0, 100 mM MgCl2, 10 mM ATP and 200 μM of choline in the presence of methyl[^14C]-choline chloride (50-60 μCi/mmol)) was used for the ex vivo assays. […] The samples were washed with diethyl ether saturated with water and were lyophilized. The hydrophilic choline derivatives were resolved in thin layer chromatography plates according to a described process [Ramírez, A., Penalva, V., Lucas, L., Lacal, J. C.

In a further assay the test system is HT-29 cells. The experiment in a line: HT-29 cell proliferation assay (Crystal Violet). Format: cell-based. Conditions: Homo sapiens, 144 h, six days of treatment. As for the experimental part:
The HT-29 cells were seeded in 24-well plates (35×10^3 cells/well) and were incubated for 24 hours. Then the cells were treated with different concentrations of ChoK inhibitors in the usual culture medium. Three days later, the wells were aspirated and both fresh medium and more amount of drug were added, and the cells were maintained for three more days. The quantification of the remaining cells in each well was carried out by means of the Crystal Violet method [Gillies, R. J., Didier, N., Denton, M. Anal. Biochem. 159, 109-113 (1986)], with some modifications [Hernández-Alcoceba, R., Saniger, L., Campos, J., Núñez, M. C., Khaless, F., Gallo, M. Á., Espinosa, A., Lacal, J. C. Oncogene, 15, 2289-2301 (1997)]. Briefly, the cells were washed with TD buffer and fixed with 1% glutaraldehyde for 15 minutes. After washing again with TD, the cell nuclei were coloured with 0.1% Crystal Violet for at least 30 minutes and washed three times with distilled water. The adsorbed colouring was resuspended in 10% acetic acid and the absorbance at 595 nm was determined in a spectrometer. […] This value determined by iterative curve adjustment. Two values are determined for each point of the curve, the experiment was repeated two or three times and the mean values were estimated. In the few cases in which the two values differed more than 50%, a third experiment was carried out to determine the real value. […]

As to “1,1′-(biphenyl-3,3′-diylmethylene)bis[4-(3,5-dichloro-N-methylanilino)pyridinium]dibromide [Compound 4]”, the IC50 on Human ChoK stood at 2.6 µM.
The same measure, in the same setting: in the case of `CN(c1ccc(Cl)cc1)c1cc[n+](Cc2cccc(-c3cccc(C[n+]4ccc(N(C)c5ccc(Cl)cc5)c5ccccc54)c3)c2)c2ccccc12.[Br-].[Br-]` [Compound 5, 1,1′-(biphenyl-3,3′-diylmethylene)bis[4-(4-chloro-N-methylanilino)quinolinium]dibromide] it was 1.3 µM.
As for `c1cc(C[n+]2ccc(N3CCCC3)cc2)cc(-c2cccc(C[n+]3ccc(N4CCCC4)cc3)c2)c1` [EC1, reference compound], in the assay with HT-29 cells, half-maximal inhibition (IC50) was put at 2.6 µM.

The IC50 is the midpoint of a concentration-inhibition curve.
